The text below walks through data of patent US20080155704A1, “Methods and Compositions for Determining in vivo Activity of BiP” (King's College London, priority 2006, published 2008).

For the experiment, the system named is human rheumatoid arthritis synovial membrane (RASM). Kind of experiment: Human RASM transplanted in SCID mice (RASM/SCID chimeric mouse). The format is in vivo, human tissue in SCID mice. The settings on record: 12 days. The procedure:
Small pieces of human synovial tissue from patients with rheumatoid arthritis were transplanted into SCID mice. After successful engraftment, BiP (10 μg/animal) or human serum albumin (HSA) (10 μg/animal) were administered intravenously and the tissue removed for histological testing after 12d. […] CD86, HLA-DR, TNFα and IL-6 expression was measured by immunohistology. (B) the weight of explants retrieved from the mice treated as indicated after 12d. In this experiment anti-IL-10 antibody or an isotype control antibody were administered to the mice with the BiP or HSA.
This study used the previously developed SCID-HuRAg murine model (20). Briefly, pannus tissue, consisting of the leading edge of the invading synovial membrane into articular cartilage and bone, was collected as a single mass from RA patients at the time of arthroplastic surgery with full ethical approval. A block of 4-8 mm in diameter was implanted subcutaneously into the back of 6- to 7-week-old male SCID mice (CB.17/Icr; Charles River Japan, Tokyo, Japan), which had been bred under specific pathogen-free conditions. Successful implantation of human RA tissue was assessed visually 4 weeks after implantation, after which therapeutic manipulation of the mice was undertaken. BiP (10 μg/mouse) or HSA (10 μg/mouse) was administrated by single intravenous injection. The mice were sacrificed 12 days after injection to allow removal of the implanted tissue.
The degree of synovial inflammation of the implanted tissue was assessed as previously described. The histological findings were scored according to two different scoring systems: Koizumi's (40) or Rooney's method (41).
Paraffin embedded tissue sections were used for immunostaining for CD86 and HLA-DR. Frozen tissue sections were stained for the detection of cytokines (TNF, IL-1, IL-6, and IL-10). […]
The serum levels of human IL-4, IL-6 and IL-10 were measured by a quantitative sandwich enzyme immunoassay technique (Quantikine HS, R&D systems) according to the manufacturer's instructions.

Where [1] appears, read: 10 μg/mouse single i.v. injection.

Turning to “human serum albumin [HSA, reference compound]”, the “human IL-6 in mouse sera” value (10 μg/mouse i.v.) worked out at 1.9 ± 1.9 pg/mL. Also, under setting [1], the “Koizumi score of synovial inflammation” value is given as 12±2.2 and the “Rooney score of synovial inflammation” value worked out at 27±8.2.
